Measurements reported in PubChem BioAssay AID588689 (Southern Research Specialized Biocontainment Screening …, 2011).
Some of the results follow. Results with a measured potency or affinity are listed apart. Some results for these compounds are left out of this collection, so the calls shown say nothing about other tests. The source made the active and inactive calls. No stated cut-off is given here; in the data, inconclusive means inhibition above about 29% without an active follow-up result; inactive means below that.

The chains behind the UniProt entries cited, without tags or fusion partners.
UniProt P29991, whole entry: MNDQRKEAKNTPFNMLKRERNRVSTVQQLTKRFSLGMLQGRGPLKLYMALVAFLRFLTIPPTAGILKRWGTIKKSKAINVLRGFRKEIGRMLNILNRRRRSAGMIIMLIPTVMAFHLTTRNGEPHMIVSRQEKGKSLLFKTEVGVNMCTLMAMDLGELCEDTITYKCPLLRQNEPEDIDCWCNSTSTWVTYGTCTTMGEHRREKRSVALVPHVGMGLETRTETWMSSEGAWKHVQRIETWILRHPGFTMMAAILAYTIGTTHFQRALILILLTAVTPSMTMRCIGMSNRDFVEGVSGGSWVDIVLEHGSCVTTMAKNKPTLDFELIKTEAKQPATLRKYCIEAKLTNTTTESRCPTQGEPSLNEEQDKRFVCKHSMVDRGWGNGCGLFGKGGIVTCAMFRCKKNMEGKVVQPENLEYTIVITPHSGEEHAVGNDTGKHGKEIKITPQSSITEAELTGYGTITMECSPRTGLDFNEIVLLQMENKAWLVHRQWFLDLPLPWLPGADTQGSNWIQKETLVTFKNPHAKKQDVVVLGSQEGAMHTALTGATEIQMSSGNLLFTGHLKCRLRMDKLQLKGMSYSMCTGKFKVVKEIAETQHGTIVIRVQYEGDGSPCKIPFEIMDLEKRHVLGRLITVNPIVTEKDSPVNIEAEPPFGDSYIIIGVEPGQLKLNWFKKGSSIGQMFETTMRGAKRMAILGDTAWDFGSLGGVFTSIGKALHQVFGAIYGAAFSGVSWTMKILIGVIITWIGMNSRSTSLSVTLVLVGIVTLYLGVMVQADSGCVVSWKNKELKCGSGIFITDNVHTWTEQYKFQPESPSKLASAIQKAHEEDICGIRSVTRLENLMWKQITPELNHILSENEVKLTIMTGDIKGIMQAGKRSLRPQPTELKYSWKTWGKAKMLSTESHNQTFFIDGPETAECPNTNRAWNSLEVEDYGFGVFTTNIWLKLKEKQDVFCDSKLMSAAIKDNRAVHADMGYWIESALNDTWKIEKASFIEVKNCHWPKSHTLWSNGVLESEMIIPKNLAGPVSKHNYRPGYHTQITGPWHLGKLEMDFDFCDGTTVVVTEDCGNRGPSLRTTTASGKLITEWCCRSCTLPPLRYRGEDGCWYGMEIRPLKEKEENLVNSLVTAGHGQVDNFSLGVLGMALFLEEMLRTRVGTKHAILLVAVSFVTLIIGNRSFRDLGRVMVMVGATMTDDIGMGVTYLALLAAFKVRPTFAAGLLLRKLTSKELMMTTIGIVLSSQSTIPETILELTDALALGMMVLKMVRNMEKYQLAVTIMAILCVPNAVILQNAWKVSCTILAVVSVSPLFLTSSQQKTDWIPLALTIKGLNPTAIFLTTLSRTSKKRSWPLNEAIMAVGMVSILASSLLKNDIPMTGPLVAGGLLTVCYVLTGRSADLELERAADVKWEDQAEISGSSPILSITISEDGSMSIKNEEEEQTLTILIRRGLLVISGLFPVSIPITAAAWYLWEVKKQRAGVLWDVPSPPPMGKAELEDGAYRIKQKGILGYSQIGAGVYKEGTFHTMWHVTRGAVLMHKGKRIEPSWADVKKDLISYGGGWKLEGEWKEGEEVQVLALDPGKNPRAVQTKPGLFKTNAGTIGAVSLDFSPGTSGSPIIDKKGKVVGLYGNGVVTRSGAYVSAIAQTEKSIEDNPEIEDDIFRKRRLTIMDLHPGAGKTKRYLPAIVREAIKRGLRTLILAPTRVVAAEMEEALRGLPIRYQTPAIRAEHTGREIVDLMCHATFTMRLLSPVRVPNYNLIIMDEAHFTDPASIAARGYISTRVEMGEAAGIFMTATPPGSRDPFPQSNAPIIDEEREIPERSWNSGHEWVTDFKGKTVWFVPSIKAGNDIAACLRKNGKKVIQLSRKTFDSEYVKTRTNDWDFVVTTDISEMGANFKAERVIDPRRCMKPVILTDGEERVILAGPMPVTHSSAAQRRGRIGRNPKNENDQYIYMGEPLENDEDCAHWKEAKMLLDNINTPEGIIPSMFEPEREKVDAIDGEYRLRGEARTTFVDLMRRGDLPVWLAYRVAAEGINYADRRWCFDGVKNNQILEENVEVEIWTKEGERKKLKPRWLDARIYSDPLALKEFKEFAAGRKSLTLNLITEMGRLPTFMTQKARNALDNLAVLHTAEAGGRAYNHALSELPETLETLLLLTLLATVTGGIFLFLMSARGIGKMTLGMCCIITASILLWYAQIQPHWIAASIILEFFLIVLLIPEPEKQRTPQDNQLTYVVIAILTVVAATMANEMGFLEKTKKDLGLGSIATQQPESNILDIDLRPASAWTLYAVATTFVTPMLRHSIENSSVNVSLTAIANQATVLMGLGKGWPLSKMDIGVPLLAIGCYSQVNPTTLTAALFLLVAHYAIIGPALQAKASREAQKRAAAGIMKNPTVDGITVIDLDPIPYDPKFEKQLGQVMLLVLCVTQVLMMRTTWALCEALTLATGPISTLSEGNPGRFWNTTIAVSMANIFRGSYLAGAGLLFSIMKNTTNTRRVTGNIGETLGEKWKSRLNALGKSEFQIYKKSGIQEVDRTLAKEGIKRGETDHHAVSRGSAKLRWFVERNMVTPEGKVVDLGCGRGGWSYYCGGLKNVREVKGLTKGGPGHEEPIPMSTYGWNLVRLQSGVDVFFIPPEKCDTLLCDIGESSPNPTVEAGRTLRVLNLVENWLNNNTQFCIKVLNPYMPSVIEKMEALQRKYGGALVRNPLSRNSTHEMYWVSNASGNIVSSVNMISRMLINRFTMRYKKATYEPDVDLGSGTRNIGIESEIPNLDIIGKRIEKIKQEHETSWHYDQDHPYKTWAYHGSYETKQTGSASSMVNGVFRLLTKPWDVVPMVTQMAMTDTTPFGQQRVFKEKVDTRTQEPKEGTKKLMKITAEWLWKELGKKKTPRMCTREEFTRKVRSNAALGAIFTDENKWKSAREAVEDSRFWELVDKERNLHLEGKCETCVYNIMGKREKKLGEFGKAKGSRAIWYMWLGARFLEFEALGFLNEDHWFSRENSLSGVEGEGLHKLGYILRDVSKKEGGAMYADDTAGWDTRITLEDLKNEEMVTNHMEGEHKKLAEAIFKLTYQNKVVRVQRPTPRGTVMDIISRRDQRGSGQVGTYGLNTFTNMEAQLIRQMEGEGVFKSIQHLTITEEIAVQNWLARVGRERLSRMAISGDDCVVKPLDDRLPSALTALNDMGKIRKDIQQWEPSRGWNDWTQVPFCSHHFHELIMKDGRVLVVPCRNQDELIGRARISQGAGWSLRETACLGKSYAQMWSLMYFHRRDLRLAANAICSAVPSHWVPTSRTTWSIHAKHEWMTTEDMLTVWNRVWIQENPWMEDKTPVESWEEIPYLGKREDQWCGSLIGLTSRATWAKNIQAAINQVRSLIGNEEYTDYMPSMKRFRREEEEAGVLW

Target: Genome polyprotein (Dengue virus type 2 (strain 16681-PDK53)) (UniProt P29991)
Test: Dengue-2 NS5 methyltransferase inhibitors, primary screen, biochemical, confirmation dose response (AID 588689)
Details: Dengue-2 NS5 methyltransferase capping enzyme assay, at 25 µM, hits give high values

Row | SMILES | inhibition
1 | O=C(NCC1(N2CCCCC2)CCCCC1)c1cc([N+](=O)[O-])ccc1Cl | inactive: -12.2%
2 | CN1[C@@H]2CC[C@H]1CC(OC(=O)C(O)(c1ccccc1)c1ccccc1)C2 (stereo partly specified) | inactive: -8.6%
3 | CC(C)N1C(=O)CC2(CCN(CCOC(=O)C(O)(c3ccccc3)c3ccccc3)CC2)C1=O | inactive: 1.35%
4 | COc1cc(SC)ccc1C(=O)NCC1(N(C)C)CCCCC1 | inactive: -3.27%
5 | CCN(CC)CC(C)C(C)OC(=O)C(O)(c1ccccc1)c1ccccc1 (stereo unspecified) | inactive: -5.49%
6 | Cc1ccc(C(=O)NCC2(N3CCCCC3)CCCCC2)cc1 | inactive: -16.3%
7 | CN(C)C1CCCC1OC(=O)C(O)(c1ccccc1)c1ccccc1 (stereo unspecified) | inactive: -0.73%
8 | CN(C)c1ccc(C(=O)NCC2(N(C)C)CCCCC2)cc1 | inactive: -0.65%
9 | Cc1ccccc1C(=O)NCC1(N2CCCCC2)CCCCC1 | inactive: -2.29%
10 | O=C(NCC1(N2CCCCC2)CCCCC1)c1cc(F)c(F)cc1Cl | inactive: -3.16%
11 | C=CCN1CCN(CCOC(=O)C(O)(c2ccccc2)c2ccccc2)CC1 | inactive: -10.1%
12 | O=C(NCC1(N2CCCCC2)CCCCC1)c1cccc(Br)c1 | inactive: -4.13%
13 | Cc1cc(C(=O)NCC2(N3CCCCC3)CCCCC2)ccc1[N+](=O)[O-] | inactive: -4.85%
14 | CCN1CCCC(OC(=O)C2(O)c3ccccc3C=Cc3ccccc32)C1 (stereo unspecified) | inactive: -9.46%
15 | COc1ccc(C(=O)NCC2(N(C)C)CCCCC2)cc1 | inactive: -8.46%
16 | CN(C)C1(CNC(=O)c2ccc(Br)cc2)CCCCC1 | inactive: -3.92%
17 | COc1cc(C(=O)NCC2(N(C)C)CCCCC2)c([N+](=O)[O-])cc1OC | inactive: -0.65%
18 | COc1ccc(Cl)cc1C(=O)NCC1(N(C)C)CCCCC1 | inactive: -1.96%
19 | COc1cccc(C(=O)NCC2(N3CCCCC3)CCCCC2)c1 | inactive: 1.48%
20 | O=C(NCC1(N2CCCCC2)CCCCC1)c1cccc(Cl)c1 | inactive: 4.45%
21 | O=C(OC1CN2CCC1CC2)C(CO)(c1ccccc1)c1ccccc1 (stereo unspecified) | inactive: -2.23%
22 | COc1ccc(Br)c(C(=O)NCC2(N3CCCCC3)CCCCC2)c1 | inactive: -6.27%
23 | C=C(C)C#CC(O)(C(=O)OC1CCN(C)CC1)c1ccccc1 (stereo unspecified) | inactive: 0%
24 | CN(C)c1cccc(C(=O)NCC2(N(C)C)CCCCC2)c1 | inactive: 0%
25 | O=C(OCCN1CCCC1)C(O)(c1ccccc1)c1ccccc1 | inactive: 1.59%
26 | CC(C)Oc1ccc(C(=O)NCC2(N(C)C)CCCCC2)cc1 | inactive: 1.96%
